Biological target: Opioid receptors; mu/kappa/delta (Homo sapiens, UniProt P41145+P41143+P35372)
Test: In vitro binding affinity against Opioid receptors from bovine caudate nucleus determined in presence of [3H]- bremazocine (0.5 nM)
Assay type: protein assay, Bos taurus
Details: target entry is the homologue from another species

Amino acid sequences for entries named in this document (tags omitted). A change or cut given only in a name is not applied to a line headed by its entry.
UniProt P41145: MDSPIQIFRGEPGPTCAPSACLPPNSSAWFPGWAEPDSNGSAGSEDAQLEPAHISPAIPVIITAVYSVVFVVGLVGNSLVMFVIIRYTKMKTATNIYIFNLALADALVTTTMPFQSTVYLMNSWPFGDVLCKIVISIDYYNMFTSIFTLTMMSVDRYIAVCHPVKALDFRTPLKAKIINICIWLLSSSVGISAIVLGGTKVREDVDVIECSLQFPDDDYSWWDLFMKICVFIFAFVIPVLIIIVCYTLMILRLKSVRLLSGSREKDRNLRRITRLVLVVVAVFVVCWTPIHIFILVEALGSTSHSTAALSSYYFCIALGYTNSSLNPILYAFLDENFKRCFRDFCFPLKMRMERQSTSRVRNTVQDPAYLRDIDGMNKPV
UniProt P41143: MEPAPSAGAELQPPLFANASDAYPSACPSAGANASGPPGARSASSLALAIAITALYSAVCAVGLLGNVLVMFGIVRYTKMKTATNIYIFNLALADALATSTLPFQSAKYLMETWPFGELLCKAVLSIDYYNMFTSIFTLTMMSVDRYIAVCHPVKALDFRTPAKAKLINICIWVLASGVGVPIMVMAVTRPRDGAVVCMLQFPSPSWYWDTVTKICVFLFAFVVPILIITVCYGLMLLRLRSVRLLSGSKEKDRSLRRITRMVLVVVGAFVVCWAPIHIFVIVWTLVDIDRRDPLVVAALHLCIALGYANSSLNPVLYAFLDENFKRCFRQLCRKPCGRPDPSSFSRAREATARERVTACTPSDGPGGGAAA
UniProt P35372: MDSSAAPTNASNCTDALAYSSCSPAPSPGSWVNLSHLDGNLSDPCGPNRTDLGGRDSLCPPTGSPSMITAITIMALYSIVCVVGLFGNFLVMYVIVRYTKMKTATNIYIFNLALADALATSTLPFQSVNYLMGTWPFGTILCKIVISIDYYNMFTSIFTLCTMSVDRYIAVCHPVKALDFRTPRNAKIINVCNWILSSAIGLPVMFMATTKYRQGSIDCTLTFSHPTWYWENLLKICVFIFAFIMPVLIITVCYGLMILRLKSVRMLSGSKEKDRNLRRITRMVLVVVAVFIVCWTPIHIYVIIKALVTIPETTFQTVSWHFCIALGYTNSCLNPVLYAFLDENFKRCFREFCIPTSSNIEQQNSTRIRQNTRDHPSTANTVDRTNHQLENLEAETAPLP

CCC12CCN(CC3(O)CC3)C(Cc3ccc(O)cc31)C2(C)C (stereo unspecified) [BREMAZOCINE]
IC50: 0.5 nM

Reference: ChEMBL document CHEMBL1124831, “Conjugate addition ligands of opioid antagonists. Methacrylate esters and ethers of 6 alpha- and 6 beta-naltrexol” (J Med Chem, 1990)
